Test results reported in ChEMBL document CHEMBL2146410, “Novel N-Substituted Benzimidazolones as Potent, Selective, CNS-Penetrant, and Orally Active M1 mAChR Agonists” (ACS Med Chem Lett, 2010).
Only a part of the results on these compounds is given; other tests are left out.

Chains of the proteins cited; added tags and fusions are not shown.
UniProt P08173, whole entry: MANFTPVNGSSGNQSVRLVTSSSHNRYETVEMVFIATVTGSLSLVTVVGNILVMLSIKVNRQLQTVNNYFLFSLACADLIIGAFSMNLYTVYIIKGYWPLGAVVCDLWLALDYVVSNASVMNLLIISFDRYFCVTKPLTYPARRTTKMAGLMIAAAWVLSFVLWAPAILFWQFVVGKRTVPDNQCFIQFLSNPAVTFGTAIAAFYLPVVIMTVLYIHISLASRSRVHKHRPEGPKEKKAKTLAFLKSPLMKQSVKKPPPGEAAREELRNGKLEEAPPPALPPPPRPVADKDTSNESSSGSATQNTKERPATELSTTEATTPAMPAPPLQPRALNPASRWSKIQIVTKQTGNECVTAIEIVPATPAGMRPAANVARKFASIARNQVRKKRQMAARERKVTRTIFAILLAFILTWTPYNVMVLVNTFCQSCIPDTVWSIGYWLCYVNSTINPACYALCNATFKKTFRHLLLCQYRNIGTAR
UniProt P08172, whole entry: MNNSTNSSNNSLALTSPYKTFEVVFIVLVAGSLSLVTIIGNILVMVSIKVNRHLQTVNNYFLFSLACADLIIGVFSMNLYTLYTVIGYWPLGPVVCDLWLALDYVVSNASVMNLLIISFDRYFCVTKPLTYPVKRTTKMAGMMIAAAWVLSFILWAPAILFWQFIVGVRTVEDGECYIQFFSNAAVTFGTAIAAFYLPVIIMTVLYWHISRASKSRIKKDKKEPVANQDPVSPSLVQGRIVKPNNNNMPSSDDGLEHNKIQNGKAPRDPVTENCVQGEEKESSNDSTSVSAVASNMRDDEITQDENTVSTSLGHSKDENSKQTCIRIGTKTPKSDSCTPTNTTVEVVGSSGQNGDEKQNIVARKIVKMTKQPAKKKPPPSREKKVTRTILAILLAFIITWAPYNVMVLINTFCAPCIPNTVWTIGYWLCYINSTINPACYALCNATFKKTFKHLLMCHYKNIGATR
UniProt P20309, whole entry: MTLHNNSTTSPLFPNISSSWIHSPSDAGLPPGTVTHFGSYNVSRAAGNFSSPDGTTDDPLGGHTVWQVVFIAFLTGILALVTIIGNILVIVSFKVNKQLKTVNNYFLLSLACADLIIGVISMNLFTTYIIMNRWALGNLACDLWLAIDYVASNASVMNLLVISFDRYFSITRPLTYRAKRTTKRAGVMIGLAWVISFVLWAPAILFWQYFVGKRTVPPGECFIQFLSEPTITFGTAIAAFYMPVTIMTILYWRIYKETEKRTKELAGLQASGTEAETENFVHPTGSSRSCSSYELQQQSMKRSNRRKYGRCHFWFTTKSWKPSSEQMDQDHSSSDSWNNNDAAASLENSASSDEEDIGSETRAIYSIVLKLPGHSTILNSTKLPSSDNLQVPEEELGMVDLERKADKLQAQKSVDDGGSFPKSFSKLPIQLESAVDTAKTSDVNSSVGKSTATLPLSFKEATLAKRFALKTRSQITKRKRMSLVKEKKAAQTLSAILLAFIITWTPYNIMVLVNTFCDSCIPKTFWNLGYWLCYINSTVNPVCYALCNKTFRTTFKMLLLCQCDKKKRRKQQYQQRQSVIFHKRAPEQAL
UniProt P35462, whole entry: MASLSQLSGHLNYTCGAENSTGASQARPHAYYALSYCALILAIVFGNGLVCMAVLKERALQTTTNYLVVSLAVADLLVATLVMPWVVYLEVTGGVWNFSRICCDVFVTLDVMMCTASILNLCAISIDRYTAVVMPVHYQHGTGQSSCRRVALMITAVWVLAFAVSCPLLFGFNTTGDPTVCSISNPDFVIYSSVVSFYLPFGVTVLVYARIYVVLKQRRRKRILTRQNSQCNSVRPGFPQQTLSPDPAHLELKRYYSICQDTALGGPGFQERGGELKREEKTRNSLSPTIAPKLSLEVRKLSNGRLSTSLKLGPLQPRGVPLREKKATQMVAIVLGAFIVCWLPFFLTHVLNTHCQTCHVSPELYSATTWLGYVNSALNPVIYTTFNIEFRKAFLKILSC
UniProt P14416, whole entry: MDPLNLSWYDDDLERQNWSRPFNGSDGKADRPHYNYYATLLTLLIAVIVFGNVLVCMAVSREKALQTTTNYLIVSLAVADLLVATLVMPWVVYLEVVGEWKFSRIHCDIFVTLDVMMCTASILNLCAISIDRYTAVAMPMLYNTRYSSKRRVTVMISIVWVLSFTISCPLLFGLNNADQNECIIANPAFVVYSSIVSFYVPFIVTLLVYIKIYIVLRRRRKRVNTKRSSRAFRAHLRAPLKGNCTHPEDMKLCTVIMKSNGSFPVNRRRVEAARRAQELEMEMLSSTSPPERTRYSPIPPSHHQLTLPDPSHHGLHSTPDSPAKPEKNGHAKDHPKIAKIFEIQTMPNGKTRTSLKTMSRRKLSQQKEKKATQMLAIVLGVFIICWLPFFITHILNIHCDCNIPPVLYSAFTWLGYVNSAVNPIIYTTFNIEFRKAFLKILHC
UniProt Q12809, whole entry: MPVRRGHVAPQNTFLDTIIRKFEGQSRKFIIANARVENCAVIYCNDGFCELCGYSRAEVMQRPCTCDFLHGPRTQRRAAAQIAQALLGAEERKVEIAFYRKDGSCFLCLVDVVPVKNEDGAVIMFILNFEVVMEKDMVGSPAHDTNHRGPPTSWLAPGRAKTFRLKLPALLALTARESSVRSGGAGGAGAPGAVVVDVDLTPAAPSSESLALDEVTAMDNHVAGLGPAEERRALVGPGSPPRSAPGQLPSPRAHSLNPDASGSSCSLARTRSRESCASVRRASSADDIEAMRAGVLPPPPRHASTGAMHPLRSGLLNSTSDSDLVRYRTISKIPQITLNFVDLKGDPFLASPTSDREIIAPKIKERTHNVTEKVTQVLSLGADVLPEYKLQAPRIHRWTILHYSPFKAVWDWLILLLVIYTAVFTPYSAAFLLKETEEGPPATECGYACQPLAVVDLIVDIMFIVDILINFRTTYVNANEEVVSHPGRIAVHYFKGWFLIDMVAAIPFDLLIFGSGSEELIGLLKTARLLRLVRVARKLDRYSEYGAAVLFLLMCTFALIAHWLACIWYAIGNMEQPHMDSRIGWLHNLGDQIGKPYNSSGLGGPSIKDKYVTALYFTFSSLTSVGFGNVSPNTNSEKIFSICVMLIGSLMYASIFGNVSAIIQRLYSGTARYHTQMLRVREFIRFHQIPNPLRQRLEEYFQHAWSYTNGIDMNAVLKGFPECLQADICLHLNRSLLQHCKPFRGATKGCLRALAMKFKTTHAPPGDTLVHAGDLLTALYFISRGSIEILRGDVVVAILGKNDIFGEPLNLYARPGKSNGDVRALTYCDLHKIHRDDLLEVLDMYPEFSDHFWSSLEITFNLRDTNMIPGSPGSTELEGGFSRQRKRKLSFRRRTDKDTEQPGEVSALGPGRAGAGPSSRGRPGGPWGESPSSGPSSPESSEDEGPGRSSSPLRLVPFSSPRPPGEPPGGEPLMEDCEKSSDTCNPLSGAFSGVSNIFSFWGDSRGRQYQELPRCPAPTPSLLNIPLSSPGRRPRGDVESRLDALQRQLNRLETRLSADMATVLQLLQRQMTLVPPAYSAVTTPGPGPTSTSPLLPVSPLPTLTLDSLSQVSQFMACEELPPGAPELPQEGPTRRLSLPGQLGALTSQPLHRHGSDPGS
UniProt P28223, whole entry: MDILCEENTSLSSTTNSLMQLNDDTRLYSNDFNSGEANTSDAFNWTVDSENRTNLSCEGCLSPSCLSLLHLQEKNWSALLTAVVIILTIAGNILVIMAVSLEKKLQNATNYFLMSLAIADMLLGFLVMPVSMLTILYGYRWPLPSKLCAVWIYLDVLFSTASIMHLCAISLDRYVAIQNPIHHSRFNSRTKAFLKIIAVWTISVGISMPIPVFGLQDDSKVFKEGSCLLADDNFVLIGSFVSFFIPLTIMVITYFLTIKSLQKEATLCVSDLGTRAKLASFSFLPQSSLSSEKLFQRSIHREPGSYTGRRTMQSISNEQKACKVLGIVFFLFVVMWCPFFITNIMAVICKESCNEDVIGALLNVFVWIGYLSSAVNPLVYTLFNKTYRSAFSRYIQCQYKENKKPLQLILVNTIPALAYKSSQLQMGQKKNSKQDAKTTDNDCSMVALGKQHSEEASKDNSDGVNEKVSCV
UniProt P08908, whole entry: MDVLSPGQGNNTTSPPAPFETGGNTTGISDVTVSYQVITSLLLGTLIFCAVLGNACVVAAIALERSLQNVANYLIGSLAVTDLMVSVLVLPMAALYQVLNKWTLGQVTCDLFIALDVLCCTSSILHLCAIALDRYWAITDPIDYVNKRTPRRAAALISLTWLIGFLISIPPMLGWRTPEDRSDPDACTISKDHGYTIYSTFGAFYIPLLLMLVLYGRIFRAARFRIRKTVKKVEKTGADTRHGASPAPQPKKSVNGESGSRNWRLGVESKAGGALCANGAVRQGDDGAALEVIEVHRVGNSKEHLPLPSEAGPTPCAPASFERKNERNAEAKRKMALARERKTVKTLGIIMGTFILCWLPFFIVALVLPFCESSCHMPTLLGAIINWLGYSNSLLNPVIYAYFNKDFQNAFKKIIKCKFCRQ
UniProt P11229, whole entry: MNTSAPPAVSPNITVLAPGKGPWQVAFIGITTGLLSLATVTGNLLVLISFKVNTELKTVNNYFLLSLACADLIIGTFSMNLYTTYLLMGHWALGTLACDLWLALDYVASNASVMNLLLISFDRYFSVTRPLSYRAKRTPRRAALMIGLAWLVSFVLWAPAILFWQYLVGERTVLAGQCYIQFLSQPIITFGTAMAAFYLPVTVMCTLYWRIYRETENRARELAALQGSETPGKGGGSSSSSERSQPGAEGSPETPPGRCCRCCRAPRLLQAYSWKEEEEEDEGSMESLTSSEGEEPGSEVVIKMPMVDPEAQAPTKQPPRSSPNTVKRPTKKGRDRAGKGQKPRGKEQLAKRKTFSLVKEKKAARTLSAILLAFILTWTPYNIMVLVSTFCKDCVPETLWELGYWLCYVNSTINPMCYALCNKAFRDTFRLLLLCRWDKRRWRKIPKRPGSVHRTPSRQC
UniProt P08912, whole entry: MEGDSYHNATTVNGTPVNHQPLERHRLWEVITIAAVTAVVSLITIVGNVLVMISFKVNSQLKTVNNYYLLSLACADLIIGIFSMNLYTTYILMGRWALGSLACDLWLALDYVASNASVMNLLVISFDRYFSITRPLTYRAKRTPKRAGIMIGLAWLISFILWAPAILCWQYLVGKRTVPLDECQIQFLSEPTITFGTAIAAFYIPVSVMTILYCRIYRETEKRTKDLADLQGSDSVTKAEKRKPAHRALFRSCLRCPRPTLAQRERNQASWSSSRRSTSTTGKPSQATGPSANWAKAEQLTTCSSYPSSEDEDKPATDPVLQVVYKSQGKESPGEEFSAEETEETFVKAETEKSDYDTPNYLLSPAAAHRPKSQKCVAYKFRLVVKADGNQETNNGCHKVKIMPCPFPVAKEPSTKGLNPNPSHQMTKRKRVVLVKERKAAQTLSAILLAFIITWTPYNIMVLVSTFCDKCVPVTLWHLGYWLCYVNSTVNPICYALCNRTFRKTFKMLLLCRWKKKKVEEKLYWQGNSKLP

Experiments:
[1] = molecular target: Muscarinic acetylcholine receptor M4 (Homo sapiens, UniProt P08173); assay: Agonist activity at human muscarinic M4 receptor expressed in CHO cells coexpressing Galpha16 subunit assessed as intracellular calcium mobilization after 10 to 15 mins by FLIPR assay
[2] = molecular target: Muscarinic acetylcholine receptor M2 (Homo sapiens, UniProt P08172); assay: Agonist activity at human muscarinic M2 receptor expressed in CHO cells coexpressing Galpha16 subunit assessed as intracellular calcium mobilization after 10 to 15 mins by FLIPR assay
[3] = molecular target: Muscarinic acetylcholine receptor M3 (Homo sapiens, UniProt P20309); assay: Agonist activity at human muscarinic M3 receptor expressed in CHO cells assessed as intracellular calcium mobilization after 10 to 15 mins by FLIPR assay
[4] = molecular target: D(3) dopamine receptor (Homo sapiens, UniProt P35462); assay: Binding affinity to dopamine D3 receptor
[5] = molecular target: D(2) dopamine receptor (Homo sapiens, UniProt P14416); assay: Binding affinity to dopamine D2 receptor
[6] = test system: Liver microsomes; assay: Intrinsic clearance in human liver microsomes; format: ADME, Microsome
[7] = molecular target: Voltage-gated inwardly rectifying potassium channel KCNH2 (Homo sapiens, UniProt Q12809); assay: Binding affinity to human ERG
[8] = molecular target: 5-hydroxytryptamine receptor 2A (Homo sapiens, UniProt P28223); assay: Binding affinity to 5HT2A receptor
[9] = molecular target: 5-hydroxytryptamine receptor 1A (Homo sapiens, UniProt P08908); assay: Activity at 5HT1A receptor
[10] = molecular target: Muscarinic acetylcholine receptor M1 (Homo sapiens, UniProt P11229); assay: Agonist activity at human muscarinic M1 receptor expressed in CHO cells assessed as intracellular calcium mobilization after 10 to 15 mins by FLIPR assay
[11] = molecular target: Muscarinic acetylcholine receptor M5 (Homo sapiens, UniProt P08912); assay: Agonist activity at human muscarinic M5 receptor expressed in CHO cells assessed as intracellular calcium mobilization after 10 to 15 mins by FLIPR assay

## O=c1[nH]c2ccccc2n1C1CCN(C2CCCCC2)CC1
[1]
  pEC50: 7.7
[2]
  pEC50: 7.1
[3]
  pEC50: 5.4
[4]
  pKi: < 6.3
[5]
  pKi: < 5.9
[6]
  CLH: 1.9 mL/min/g
[7]
  pIC50: < 4.2
[8]
  pKi: < 5.6
[9]
  pEC50: < 5.5
[10]
  pEC50: 7.9
[11]
  pEC50: < 5
